This passage reports Kd results from publication PMC7332966 (2020).

By UniProt entry, the sequences of proteins in these tests, tags left out. Where a name states a change or a piece, a line headed by the entry shows the natural chain unless it says otherwise.
UniProt Q9NVI1: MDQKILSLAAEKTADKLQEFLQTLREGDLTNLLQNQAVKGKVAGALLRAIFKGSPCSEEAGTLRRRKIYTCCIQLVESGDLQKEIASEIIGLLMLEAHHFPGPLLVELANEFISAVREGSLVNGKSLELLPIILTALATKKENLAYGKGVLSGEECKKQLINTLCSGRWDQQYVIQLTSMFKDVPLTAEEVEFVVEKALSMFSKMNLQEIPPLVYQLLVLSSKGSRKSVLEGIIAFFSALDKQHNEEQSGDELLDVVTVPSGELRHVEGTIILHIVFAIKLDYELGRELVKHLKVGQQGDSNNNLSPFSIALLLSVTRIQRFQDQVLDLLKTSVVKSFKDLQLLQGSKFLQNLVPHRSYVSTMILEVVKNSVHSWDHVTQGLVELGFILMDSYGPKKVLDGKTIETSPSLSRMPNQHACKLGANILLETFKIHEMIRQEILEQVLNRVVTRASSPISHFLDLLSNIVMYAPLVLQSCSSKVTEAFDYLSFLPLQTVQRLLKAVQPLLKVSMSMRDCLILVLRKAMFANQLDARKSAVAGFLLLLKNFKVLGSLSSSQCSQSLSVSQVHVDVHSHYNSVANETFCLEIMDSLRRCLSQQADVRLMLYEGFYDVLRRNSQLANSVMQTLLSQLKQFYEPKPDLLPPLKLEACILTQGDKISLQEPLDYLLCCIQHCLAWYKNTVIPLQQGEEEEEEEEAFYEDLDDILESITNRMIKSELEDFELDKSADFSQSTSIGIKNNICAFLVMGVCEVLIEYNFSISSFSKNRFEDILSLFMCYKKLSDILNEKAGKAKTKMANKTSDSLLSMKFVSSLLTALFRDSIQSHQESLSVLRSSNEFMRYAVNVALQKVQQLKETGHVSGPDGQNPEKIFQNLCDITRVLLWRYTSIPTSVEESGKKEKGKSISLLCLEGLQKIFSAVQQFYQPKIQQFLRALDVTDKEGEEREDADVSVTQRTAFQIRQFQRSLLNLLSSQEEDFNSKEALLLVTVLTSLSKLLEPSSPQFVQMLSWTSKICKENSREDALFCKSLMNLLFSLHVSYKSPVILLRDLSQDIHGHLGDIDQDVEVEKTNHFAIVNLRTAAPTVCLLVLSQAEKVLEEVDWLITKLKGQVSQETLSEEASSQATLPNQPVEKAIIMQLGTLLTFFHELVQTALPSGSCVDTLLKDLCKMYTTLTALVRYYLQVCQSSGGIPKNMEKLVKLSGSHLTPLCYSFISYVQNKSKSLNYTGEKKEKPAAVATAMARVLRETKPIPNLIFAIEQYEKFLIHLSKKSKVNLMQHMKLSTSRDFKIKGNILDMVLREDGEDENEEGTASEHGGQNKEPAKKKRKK

The test concerns the target His6-FANCI R1285Q (human, UniProt Q9NVI1, R1285Q, RED-tris-NTA dye (NanoTemper) on the His6 tag).

B1: FANCD2 (from His6-3C-FANCD2, His6-tag cleaved by 3C protease) (natural protein)
chain: MVSKRRLSKSEDKESLTEDASKTRKQPLSKKTKKSHIANEVEENDSIFVKLLKISGIILKTGESQNQLAVDQIAFQKKLFQTLRRHPSYPKIIEEFVSGLESYIEDEDSFRNCLLSCERLQDEEASMGASYSKSLIKLLLGIDILQPAIIKTLFEKLPEYFFENKNSDEINIPRLIVSQLKWLDRVVDGKDLTTKIMQLISIAPENLQHDIITSLPEILGDSQHADVGKELSDLLIENTSLTVPILDVLSSLRLDPNFLLKVRQLVMDKLSSIRLEDLPVIIKFILHSVTAMDTLEVISELREKLDLQHCVLPSRLQASQVKLKSKGRASSSGNQESSGQSCIILLFDVIKSAIRYEKTISEAWIKAIENTASVSEHKVFDLVMLFIIYSTNTQTKKYIDRVLRNKIRSGCIQEQLLQSTFSVHYLVLKDMCSSILSLAQSLLHSLDQSIISFGSLLYKYAFKFFDTYCQQEVVGALVTHICSGNEAEVDTALDVLLELVVLNPSAMMMNAVFVKGILDYLDNISPQQIRKLFYVLSTLAFSKQNEASSHIQDDMHLVIRKQLSSTVFKYKLIGIIGAVTMAGIMAADRSESPSLTQERANLSDEQCTQVTSLLQLVHSCSEQSPQASALYYDEFANLIQHEKLDPKALEWVGHTICNDFQDAFVVDSCVVPEGDFPFPVKALYGLEEYDTQDGIAINLLPLLFSQDFAKDGGPVTSQESGQKLVSPLCLAPYFRLLRLCVERQHNGNLEEIDGLLDCPIFLTDLEPGEKLESMSAKERSFMCSLIFLTLNWFREIVNAFCQETSPEMKGKVLTRLKHIVELQIILEKYLAVTPDYVPPLGNFDVETLDITPHTVTAISAKIRKKGKIERKQKTDGSKTSSSDTLSEEKNSECDPTPSHRGQLNKEFTGKEEKTSLLLHNSHAFFRELDIEVFSILHCGLVTKFILDTEMHTEATEVVQLGPPELLFLLEDLSQKLESMLTPPIARRVPFLKNKGSRNIGFSHLQQRSAQEIVHCVFQLLTPMCNHLENIHNYFQCLAAENHGVVDGPGVKVQEYHIMSSCYQRLLQIFHGLFAWSGFSQPENQNLLYSALHVLSSRLKQGEHSQPLEELLSQSVHYLQNFHQSIPSFQCALYLIRLLMVILEKSTASAQNKEKIASLARQFLCRVWPSGDKEKSNISNDQLHALLCIYLEHTESILKAIEEIAGVGVPELINSPKDASSSTFPTLTRHTFVVFFRVMMAELEKTVKKIEPGTAADSQQIHEEKLLYWNMAVRDFSILINLIKVFDSHPVLHVCLKYGRLFVEAFLKQCMPLLDFSFRKHREDVLSLLETFQLDTRLLHHLCGHSKIHQDTRLTQHVPLLKKTLELLVCRVKAMLTLNNCREAFWLGNLKNRDLQGEEIKSQNSQESTADESEDDMSSQASKSKATEDGEEDEVSAGEKEQDSDESYDDSD
In general, Kd refers to the equilibrium constant for the complex coming apart. A low value points to higher affinity. Take B1: binding was put at a Kd of 3.43 nM.
